Source: PubChem
Lamin A splicing: changes lamin A minigene splicing in HeLa cells | HeLa LMNA splicing GFP/RFP minigene ratio, 48 h | Potency, µM (titrated, usually from 46.1 µM), for inactives: at the top dose ratio change, negative = inhibition, usual class: inhibitors | 0.01% of 200,000 active | AID 1487; active means well fitted inhibition curve with a large enough effect in the signal ratio, with a control signal flat, not every such curve was filed as active; inconclusive means small, poorly fitted or top-dose-only effect, or effect the other way, or a change in a side signal; the % refers to the signal ratio; further: potency means the concentration at half of the fitted maximal effect; on the % scale 0 is the no-effect control and ±100 the full control effect
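Read-out is the ratio of GFP to DsRed2 object intensity, acquired by 488 nm laser-scanning cytometry on HeLa lamin A-EGFP minigene reporter cells. Compound incubation 48 hrs at 37 °C in Opti-MEM with 2% FBS; DMSO 0.5% final.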
G9a inh: inhibitors of human histone lysine methyltransferase G9a. G9a H3K9 monomethylation, AlphaScreen, 2 h. Potency, µM (series often up to 102 µM), for inactives: at the highest dose activity, negative = inhibition, most hits filed as inhibitors. 8.8% of 350,000 active. AID 504332; further: potency means the concentration at half of the fitted maximal effect; on the % scale 0 is the no-effect control and ±100 the full control effect; nearly all actives have a fitted effect of over 75% in size
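Quantitative HTS format: methyltransferase activity on a biotin-tagged H3K9 peptide is measured by AlphaScreen, using a rabbit anti-monomethyl-H3K9 antibody with streptavidin donor and anti-IgG acceptor beads. Final levels are 20 nM enzyme, 500 nM peptide, 20 uM SAM; 2 h RT.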
miR-21 reporter: miR-21 reporter, rising signal | AID 2288 | HeLa miR-21 FLuc reporter, luciferase, 48 h | 340,000 tested, under 10 active | Potency, µM (titrated, usually from 38.3 µM), for the others: at the top dose reporter change, positive = more light; active = well fitted rising curve with a large enough effect; inconclusive = small, poorly fitted or top-dose-only effect; inactive = no such curve, though single readings can be large or run the other way;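 also: % of control where 0% means no effect; miR-21 action dims this reporter so a rising signal means less miR-21 action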
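Using DMEM plus 10% FBS, HeLa miR-21-FLuc cells are incubated with test compounds (final up to about 40uM) for 48 hours; firefly luciferase signal is then imaged following reagent-mediated lysis.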
Sfp inh: qHTS Assay for Inhibitors of Bacillus subtilis Sfp phosphopantetheinyl transferase (PPTase) | 4'-phosphopantetheinyl transferase ffp (Bacillus subtilis), Q9F4F7 | Biochemical Sfp PPTase activity, qHTS | Potency, µM, for inactives: max response, negative = inhibition, hits mostly inhibitors | 3.5% of 310,000 active | AID 1490, 2009; active = well fitted inhibition curve with a large enough effect; inconclusive = small, poorly fitted or top-dose-only effect, or another doubt; inactive = no such curve, though single readings can be large or run the other way;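 also: the enzyme is Sfp with the accession as filed and its product quenches rhodamine fluorescence; potency is read from the fitted curve at half-maximal effect; 0% = enzyme reaction without inhibitor and -100% = no enzyme wells; top concentration of the series not given in the record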
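Step 1, compound plus 15 nM Sfp-PPTase, 15 min, room temperature. Step 2, add rhodamine-CoA (5 uM) and BHQ-2-YbbR (12.5 uM). Step 3, read 525/598 nm fluorescence at 0 and 30 min.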
ALDH1A1 block: blocks purified human ALDH1A1 activity; Potency, µM (titrated, usually from 75.3 µM), for the others: at the top dose activity, negative = inhibition, most hits filed as inhibitors; 7.3% of 220,000 active; P00352; Purified ALDH1A1, NADH fluorescence, propionaldehyde substrate; AID 1030; active means well fitted inhibition curve with a large enough effect, not every such curve was filed as active; inconclusive means small, poorly fitted or top-dose-only effect, or another doubt; inactive means no such curve, though single readings can be large or run the other way;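 further: potency means the concentration at half of the fitted maximal effect; plate controls were no enzyme wells and a reference inhibitor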
JMJD2E inh: JMJD2E (human) inhibition. 1.6% of 230,000 active. B2RXH2. AID 2147. Potency, µM (highest dose often 57.1 µM), for inactives: at the highest dose activity change, negative = inhibition, hits mostly inhibitors. JMJD2E catalytic domain, FDH-coupled NADH fluorescence (FDH is formaldehyde dehydrogenase);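 further: potency means the concentration at half of the fitted maximal effect; 0% = wells with enzyme and -100% = buffer wells without enzyme; nearly all actives have a fitted effect of over 50% in size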
Active calls of the source: *; [ ] = another dose, or the depositor's remark. A selection: hits, their analogues and other compounds. The true share with any hit is near 13%. Unless noted, the call rests on the fitted dose curve; in most records, active means well fitted curve in the direction sought with a large enough effect; inconclusive means small, poorly fitted or top-dose-only effect, or another doubt; inactive means no such curve, though single readings can be large; an effect the other way counts as inactive or inconclusive.

Results for CCN(CC)CCOc1cc2c(nn1)Oc1ccccc1N2C ?
Lamin A splicing: -5%; G9a inh: 50µM*; miR-21 reporter: -21%; Sfp inh: 8%; ALDH1A1 block: inconclusive; JMJD2E inh: inconclusive

Results for CCC(Sc1nnc2c(n1)[nH]c1ccccc12)C(=O)Nc1nnc(C(C)C)s1 (configuration not stated) ?
G9a inh: -37%[59 µM]; miR-21 reporter: -10%

What do the screens show for `Cc1ccn2c(=O)cc(COc3ccc(NC(=O)COc4ccc(Cl)cc4)cc3)nc2c1`?
Lamin A splicing: 4%[46 µM]; G9a inh: 15%[59 µM]; miR-21 reporter: -1%

How did O=C(CCN1CCc2ccccc2C(c2ccccc2)C1)c1ccc2c(c1)OCCO2 (configuration not stated) do in these assays?
Lamin A splicing: inconclusive; G9a inh: inconclusive; miR-21 reporter: 9%; Sfp inh: 45µM*; ALDH1A1 block: 0.14µM*; JMJD2E inh: 0%

What do the screens show for `CCCC(=O)c1ccc2c(c1)OCCO2`?
Lamin A splicing: -5%; G9a inh: inconclusive; miR-21 reporter: -16%; Sfp inh: -5%; ALDH1A1 block: 3%; JMJD2E inh: 1%

How did O=C(CS(=O)(=O)c1ccccc1)c1ccc2c(c1)OCCO2 do in these assays?
Lamin A splicing: -12%; G9a inh: -26%[59 µM]; miR-21 reporter: -25%; Sfp inh: 0%; ALDH1A1 block: inconclusive; JMJD2E inh: inconclusive

What do the screens show for `O=C(CCN1Cc2ccccc2C1)c1ccc2c(c1)OCCO2`?
Lamin A splicing: inconclusive; G9a inh: 8.9µM*; miR-21 reporter: 6%; Sfp inh: inconclusive; ALDH1A1 block: 1.3µM*; JMJD2E inh: -16%

Results for O=C(O)CCC(=O)c1ccc2c(c1)OCCO2 ?
Lamin A splicing: 6%; G9a inh: 16%; miR-21 reporter: -20%; Sfp inh: 12%; ALDH1A1 block: 12%; JMJD2E inh: -11%

How did O=C(O)CCSCC(=O)c1ccc2c(c1)OCCO2 do in these assays?
Lamin A splicing: 2%; G9a inh: 32µM*; miR-21 reporter: 28%; Sfp inh: 45µM*; ALDH1A1 block: 15µM*; JMJD2E inh: -2%

What do the screens show for `CCC1CCCCN1C(=O)CSc1nnc(-c2ccc(OC)c(OC)c2)o1` (configuration not stated)?
G9a inh: -29%[59 µM]; miR-21 reporter: -1%

Results for COc1cccc(NC(=O)Cn2c(=O)n(Cc3nc(-c4ccccc4)no3)c(=O)c3ccccc32)c1 ?
G9a inh: 1%[59 µM]; miR-21 reporter: -2%

What do the screens show for `COC(=O)N[C@@H](c1cccc(F)c1)[C@@H](C)[N+](=O)[O-]`?
Sfp inh: 7%; ALDH1A1 block: 10%; JMJD2E inh: 1%

How did O=C(CSC1=N/C(=C/c2ccco2)C(=O)N1c1ccc(OC(F)F)cc1)NC1CCS(=O)(=O)C1 (configuration not stated) do in these assays?
Lamin A splicing: inconclusive; G9a inh: 45µM*; miR-21 reporter: -19%; Sfp inh: -18%; ALDH1A1 block: inconclusive; JMJD2E inh: 0%

What do the screens show for `COc1ccc(N2C(=O)/C(=C\c3ccco3)N=C2SCC(=O)N(C(C)C)C(C)C)cc1Cl`?
Lamin A splicing: -3%; G9a inh: 13%[59 µM]; miR-21 reporter: -11%; Sfp inh: 56µM*; ALDH1A1 block: -1%; JMJD2E inh: 6%

What do the screens show for `COc1ccc(N2C(=O)/C(=C\c3ccco3)N=C2SCC(=O)NC(C)C)cc1Cl`?
Lamin A splicing: inconclusive; G9a inh: inconclusive; miR-21 reporter: -12%; Sfp inh: -22%; ALDH1A1 block: 1%; JMJD2E inh: -25%

How did COc1ccc(NS(=O)(=O)c2ccc3c(c2)CC(C)N3C(C)=O)c(OC)c1 (configuration not stated) do in these assays?
Lamin A splicing: inconclusive; G9a inh: -2%[59 µM]; miR-21 reporter: 9%

Results for Cn1c(CCNC(=O)c2ccco2)nc2cc(NS(=O)(=O)c3ccccc3)ccc21 ?
Lamin A splicing: -11%; G9a inh: -16%[12.7 µM]; miR-21 reporter: 5%; Sfp inh: 10%; ALDH1A1 block: 20µM*; JMJD2E inh: 10%

Results for Cn1c(CCNC(=O)c2ccco2)nc2cc(NC(=O)c3ccco3)ccc21 ?
Lamin A splicing: -5%; G9a inh: 14µM*; miR-21 reporter: -41%; Sfp inh: -10%; ALDH1A1 block: inconclusive; JMJD2E inh: -4%

How did Cn1c(CCNC(=O)c2ccco2)nc2cc(NC(=O)c3ccccc3)ccc21 do in these assays?
G9a inh: -36%; miR-21 reporter: -36%; Sfp inh: 10%

What do the screens show for `Cn1c(CCNC(=O)c2ccccc2)nc2cc(NC(=O)c3ccco3)ccc21`?
Lamin A splicing: 0%; G9a inh: -37%[12.7 µM]; miR-21 reporter: -33%; Sfp inh: 14%; ALDH1A1 block: -8%; JMJD2E inh: 10%

3 entries out of the list, arranged by heavy-atom count, ascending:
What do the screens show for `CCCC(=O)c1ccc2c(c1)OCCO2`?
Lamin A splicing: -5%; G9a inh: inconclusive; miR-21 reporter: -16%; Sfp inh: -5%; ALDH1A1 block: 3%; JMJD2E inh: 1%

What do the screens show for `COC(=O)N[C@@H](c1cccc(F)c1)[C@@H](C)[N+](=O)[O-]`?
Sfp inh: 7%; ALDH1A1 block: 10%; JMJD2E inh: 1%

Results for Cn1c(CCNC(=O)c2ccco2)nc2cc(NC(=O)c3ccco3)ccc21 ?
Lamin A splicing: -5%; G9a inh: 14µM*; miR-21 reporter: -41%; Sfp inh: -10%; ALDH1A1 block: inconclusive; JMJD2E inh: -4%

The listing continues:
How did CC(C)(C)c1ccc(C(=O)Nc2onc3c2CCCC3)cc1 do in these assays?
G9a inh: 2%[59 µM]; miR-21 reporter: 16%

How did CC(=O)Oc1ccc(/C=N/NC(=S)Nc2ccccc2)cc1 do in these assays?
Lamin A splicing: 1%; G9a inh: 34%[59 µM]; miR-21 reporter: -62%; Sfp inh: -15%; ALDH1A1 block: 8%; JMJD2E inh: 14%

How did CCc1cc(SC#N)cc(C)c1NC(=O)CCl do in these assays?
Lamin A splicing: inconclusive; G9a inh: 40µM*; miR-21 reporter: inconclusive; Sfp inh: 8%; ALDH1A1 block: -4%; JMJD2E inh: -3%

What do the screens show for `CCC(=O)Nc1ccc(SC#N)cc1C`?
Lamin A splicing: 15%; G9a inh: inconclusive; miR-21 reporter: 20%; Sfp inh: -5%; ALDH1A1 block: 2.5µM*; JMJD2E inh: -1%

How did COc1cccc(NC(=O)CS(=O)(=O)Cc2nc(-c3ccc(C)cc3)oc2C)c1 do in these assays?
G9a inh: 8%; miR-21 reporter: 3%; Sfp inh: -8%

What do the screens show for `O=C(Nc1cccc(Cl)c1Cl)c1ccc2c(c1)N(Cc1cccc(Cl)c1)C(=O)c1ccccc1S2=O` (configuration not stated)?
Lamin A splicing: 5%[46 µM]; G9a inh: 4%[59 µM]; miR-21 reporter: 2%

What do the screens show for `NC(=S)N/N=C1/CCSc2ccc3ccccc3c21`?
Lamin A splicing: inconclusive; G9a inh: 45µM*; miR-21 reporter: 8%; Sfp inh: 6%; ALDH1A1 block: inconclusive; JMJD2E inh: -6%

How did Nc1cc(-c2ccccc2)nn1S(=O)(=O)c1ccc(Br)cc1 do in these assays?
Lamin A splicing: 18%; G9a inh: 50µM*; miR-21 reporter: 1%; Sfp inh: -2%; ALDH1A1 block: 16µM*; JMJD2E inh: -7%
